Data from PMC5157691 (Research and reports in biochemistry, 2016).

Assays:
[1] = target: K18-37, C-terminal part of LL-37 (residues 18-37) (human); assay: cell adhesion assay
[2] = target: LL-37 peptide (human cathelicidin peptide) (human); assay: cell adhesion assay

percent of added cells adhered (coating concentration 5 μg/ml, maximal adhesion) [1]: 47%
percent of added cells adhered (coating concentration 2 μg/ml) [2]: 52%
Substance: integrin αMβ2 (Mac-1, CD11b/CD18) on HEK293 cells stably expressing Mac-1 (from UniProt P11215 17-1152; P05107 23-769) (receptor)
